Values quoted from earlier work, collected in article PMC8513935.

What was measured:
[1] = log P octanol/water from commercial databases, averaged (the ESI); settings: Octanol (wet), 25 C
[2] = derived by the authors as gas->solvent minus gas->water (a hypothetical dry solvent; the ESI), not a two-phase measurement; settings: 25 C

c1ccc2ccccc2c1
log K of transfer, water to solvent [1]: 3.32 log10 K
log K of transfer, water to solvent ([2]; Acetonitrile): 3.87 log10 K
log K of transfer, water to solvent ([2]; Dichloromethane): 4.18 log10 K
